Molecular target: Adenosine receptor A3 (Homo sapiens, UniProt P0DMS8)
Assay: Relative activation of human Adenosine A3 receptor expressed in CHO cells at 10 uM treatment compared to 10 uM Cl-IB-MECA
Assay type: functional, cell-based

Protein sequences, listed by entry. Tags and fused reporters are not part of them.
UniProt P0DMS8, whole entry: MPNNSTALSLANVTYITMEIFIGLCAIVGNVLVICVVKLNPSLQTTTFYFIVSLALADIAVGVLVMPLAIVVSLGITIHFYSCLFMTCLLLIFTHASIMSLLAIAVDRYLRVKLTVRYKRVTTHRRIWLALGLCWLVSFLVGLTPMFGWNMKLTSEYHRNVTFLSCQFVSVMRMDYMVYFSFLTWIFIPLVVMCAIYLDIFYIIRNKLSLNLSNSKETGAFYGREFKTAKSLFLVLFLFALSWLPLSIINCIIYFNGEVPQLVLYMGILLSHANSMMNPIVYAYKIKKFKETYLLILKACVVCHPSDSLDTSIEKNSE

In the case of `CNc1ncnc2c1ncn2[C@@H]1O[C@H](CO)[C@@H](O)[C@H]1O`, the Activation is reported as 96%.

Reference: ChEMBL document CHEMBL1142719 (J Med Chem, 2005)
